In ChEMBL document CHEMBL2176920, “Structure-based selectivity optimization of piperidine-pteridine derivatives as potent Leishmania pteridine reductase inhibitors” (J Med Chem, 2012):

Legend:
[1] = biological target: T1, Pteridine reductase 1 (Leishmania major, UniProt Q01782)
T1 sequence (Q01782 whole entry): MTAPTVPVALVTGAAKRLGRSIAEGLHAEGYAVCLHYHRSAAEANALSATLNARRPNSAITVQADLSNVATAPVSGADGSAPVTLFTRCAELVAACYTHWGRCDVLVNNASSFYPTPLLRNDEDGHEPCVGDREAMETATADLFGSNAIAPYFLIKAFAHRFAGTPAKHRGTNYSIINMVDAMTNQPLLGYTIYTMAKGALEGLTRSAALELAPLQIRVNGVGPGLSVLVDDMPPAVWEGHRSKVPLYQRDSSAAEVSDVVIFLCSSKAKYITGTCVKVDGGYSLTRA

[2] = Selectivity index, ratio of Ki for human DHFR to Ki for Leishmania major PTR1

Row | Structure (SMILES) | Ki [1] [µM] | Ratio Ki [2]
1 | COC(=O)C1CCN(C(=O)c2ccc(N(CCO)Cc3cnc4nc(N)nc(N)c4n3)cc2)CC1 | 0.03 | –
2 | CCOC(=O)CN(Cc1cnc2nc(N)nc(N)c2n1)c1ccc(C(=O)N2CCC(C(=O)OC)CC2)cc1 | 0.1 | –
3 | COC(=O)C1CCN(C(=O)c2ccc(N(C)Cc3cnc4nc(N)nc(N)c4n3)cc2)CC1 | – | 21
